According to patent US9493501B2, “Methyltransferase inhibitors for treating cancer” (MEMORIAL SLOAN-KETTERING CANCER CENTER, priority 2011, dated 2016):

Biological target: T1, SETD2 (1347-1711) (Homo sapiens, UniProt Q9BYW2)
T1 construct: SETD2 (1347-1711)
T1 sequence (Q9BYW2 1347-1711): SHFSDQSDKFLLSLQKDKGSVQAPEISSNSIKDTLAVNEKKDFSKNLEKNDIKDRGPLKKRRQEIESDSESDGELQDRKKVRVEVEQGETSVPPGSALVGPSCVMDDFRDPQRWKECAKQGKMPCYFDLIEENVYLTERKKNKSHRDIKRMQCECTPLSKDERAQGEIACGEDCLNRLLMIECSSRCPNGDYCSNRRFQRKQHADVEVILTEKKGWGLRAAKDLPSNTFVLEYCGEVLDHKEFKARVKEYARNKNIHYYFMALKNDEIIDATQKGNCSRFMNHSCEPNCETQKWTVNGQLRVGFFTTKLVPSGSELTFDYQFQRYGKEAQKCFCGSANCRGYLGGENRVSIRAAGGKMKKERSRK
Experiment: Filter-paper methylation assay, SETD2
Format: biochemical
Conditions: among the subset of PMTs screened

## CCCN[C@@H](CC[C@H](N)C(=O)O)C[C@H]1O[C@@H](n2cnc3c(N)ncnc32)[C@H](O)[C@@H]1O [Compound 102]
  selectivity for SETD2: selective
